The source of these data is patent US20020026051A1, “Dithiepino [6,5-b]pyridines, and related compositions and methods” (priority 1999, published 2002).

Sequences of proteins named here, by UniProt entry; tags and fusion partners are left off. Residues count along the entry.
UniProt P15381, whole entry: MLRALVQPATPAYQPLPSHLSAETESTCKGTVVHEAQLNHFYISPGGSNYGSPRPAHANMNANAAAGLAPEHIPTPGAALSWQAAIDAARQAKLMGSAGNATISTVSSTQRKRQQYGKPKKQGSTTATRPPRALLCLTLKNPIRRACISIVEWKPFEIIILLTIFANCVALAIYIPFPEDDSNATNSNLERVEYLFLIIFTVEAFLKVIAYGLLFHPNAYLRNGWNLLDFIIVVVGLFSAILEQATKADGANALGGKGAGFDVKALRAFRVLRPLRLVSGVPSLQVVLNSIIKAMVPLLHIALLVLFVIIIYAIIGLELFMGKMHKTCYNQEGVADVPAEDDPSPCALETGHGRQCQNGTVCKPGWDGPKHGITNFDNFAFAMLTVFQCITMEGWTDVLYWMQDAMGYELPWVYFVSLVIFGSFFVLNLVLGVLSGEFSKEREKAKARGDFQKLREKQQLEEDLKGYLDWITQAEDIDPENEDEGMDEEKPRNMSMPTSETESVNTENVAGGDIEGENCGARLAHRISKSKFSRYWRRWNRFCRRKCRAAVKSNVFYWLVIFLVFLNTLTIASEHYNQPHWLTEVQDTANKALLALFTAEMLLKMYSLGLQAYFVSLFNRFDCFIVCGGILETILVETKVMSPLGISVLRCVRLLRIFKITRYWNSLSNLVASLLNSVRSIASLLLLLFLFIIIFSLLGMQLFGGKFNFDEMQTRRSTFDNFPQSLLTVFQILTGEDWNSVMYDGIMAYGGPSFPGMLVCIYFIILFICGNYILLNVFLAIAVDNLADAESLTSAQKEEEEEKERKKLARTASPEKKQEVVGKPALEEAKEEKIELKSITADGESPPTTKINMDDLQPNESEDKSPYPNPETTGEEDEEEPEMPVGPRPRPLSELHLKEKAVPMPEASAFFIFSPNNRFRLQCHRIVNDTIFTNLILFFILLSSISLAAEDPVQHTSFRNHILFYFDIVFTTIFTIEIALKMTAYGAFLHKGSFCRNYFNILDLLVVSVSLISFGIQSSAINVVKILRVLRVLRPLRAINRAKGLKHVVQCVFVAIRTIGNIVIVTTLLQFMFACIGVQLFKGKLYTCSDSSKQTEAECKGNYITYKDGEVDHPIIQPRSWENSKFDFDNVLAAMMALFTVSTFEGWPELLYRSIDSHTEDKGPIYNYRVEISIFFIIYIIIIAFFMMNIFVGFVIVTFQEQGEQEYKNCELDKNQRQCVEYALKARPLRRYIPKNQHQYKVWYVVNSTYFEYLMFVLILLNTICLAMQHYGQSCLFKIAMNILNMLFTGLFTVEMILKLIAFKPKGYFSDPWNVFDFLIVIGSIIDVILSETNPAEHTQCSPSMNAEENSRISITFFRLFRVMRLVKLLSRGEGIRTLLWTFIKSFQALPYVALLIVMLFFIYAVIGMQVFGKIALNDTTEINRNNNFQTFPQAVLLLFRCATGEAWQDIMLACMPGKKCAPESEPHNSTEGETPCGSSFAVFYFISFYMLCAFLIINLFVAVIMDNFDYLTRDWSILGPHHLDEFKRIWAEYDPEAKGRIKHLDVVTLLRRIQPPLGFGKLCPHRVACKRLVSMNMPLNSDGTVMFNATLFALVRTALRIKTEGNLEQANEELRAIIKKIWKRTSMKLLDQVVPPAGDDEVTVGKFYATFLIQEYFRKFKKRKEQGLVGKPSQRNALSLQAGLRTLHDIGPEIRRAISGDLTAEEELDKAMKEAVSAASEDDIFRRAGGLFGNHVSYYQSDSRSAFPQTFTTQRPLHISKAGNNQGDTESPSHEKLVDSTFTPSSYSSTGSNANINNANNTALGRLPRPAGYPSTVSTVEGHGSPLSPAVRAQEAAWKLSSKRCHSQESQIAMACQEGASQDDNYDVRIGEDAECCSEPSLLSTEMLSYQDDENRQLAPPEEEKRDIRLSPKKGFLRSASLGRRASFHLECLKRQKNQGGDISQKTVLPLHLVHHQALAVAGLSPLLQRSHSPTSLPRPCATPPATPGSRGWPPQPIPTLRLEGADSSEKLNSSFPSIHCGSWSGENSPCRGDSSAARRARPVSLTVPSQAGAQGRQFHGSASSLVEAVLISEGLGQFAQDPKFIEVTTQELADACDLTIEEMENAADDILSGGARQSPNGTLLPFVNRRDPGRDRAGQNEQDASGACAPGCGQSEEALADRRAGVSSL
UniProt P13806, 27-960 partner limits assumed: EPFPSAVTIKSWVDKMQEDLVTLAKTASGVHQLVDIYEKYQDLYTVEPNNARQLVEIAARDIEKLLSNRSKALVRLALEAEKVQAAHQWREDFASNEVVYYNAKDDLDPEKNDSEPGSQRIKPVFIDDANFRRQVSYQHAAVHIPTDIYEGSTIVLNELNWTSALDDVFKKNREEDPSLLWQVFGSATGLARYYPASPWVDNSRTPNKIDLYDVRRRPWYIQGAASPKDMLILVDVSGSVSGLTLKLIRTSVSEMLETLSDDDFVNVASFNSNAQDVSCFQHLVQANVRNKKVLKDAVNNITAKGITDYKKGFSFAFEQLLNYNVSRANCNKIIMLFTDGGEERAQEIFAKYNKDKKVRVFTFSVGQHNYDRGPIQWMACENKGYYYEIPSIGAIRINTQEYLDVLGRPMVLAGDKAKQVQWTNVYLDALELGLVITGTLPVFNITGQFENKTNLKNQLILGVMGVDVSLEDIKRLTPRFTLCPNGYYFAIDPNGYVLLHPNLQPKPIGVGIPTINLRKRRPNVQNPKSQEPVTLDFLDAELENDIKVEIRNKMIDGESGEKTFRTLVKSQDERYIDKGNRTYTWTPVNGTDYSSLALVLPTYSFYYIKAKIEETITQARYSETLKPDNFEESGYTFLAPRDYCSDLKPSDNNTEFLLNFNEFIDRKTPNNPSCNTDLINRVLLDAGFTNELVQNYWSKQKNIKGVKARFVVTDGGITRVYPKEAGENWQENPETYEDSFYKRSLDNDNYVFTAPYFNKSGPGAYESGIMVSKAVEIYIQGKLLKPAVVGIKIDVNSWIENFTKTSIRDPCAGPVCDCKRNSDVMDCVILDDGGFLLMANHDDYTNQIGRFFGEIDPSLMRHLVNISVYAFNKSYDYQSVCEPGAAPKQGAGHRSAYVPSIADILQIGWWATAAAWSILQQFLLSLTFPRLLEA
UniProt P13806, 961-1106 partner limits assumed: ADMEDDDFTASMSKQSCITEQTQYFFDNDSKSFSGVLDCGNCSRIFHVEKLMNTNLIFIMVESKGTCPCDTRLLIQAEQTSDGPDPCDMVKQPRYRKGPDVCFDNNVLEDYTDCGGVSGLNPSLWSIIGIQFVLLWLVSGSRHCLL

The IC50 is the concentration that inhibits the measured activity by half.

The target in this test is calcium channel (Oryctolagus cuniculus, UniProt P15381). The test can be described thus: Assay for Inhibition of Nitrendipine Binding (3H-nitrendipine, heart membranes). The settings on record: read-out: Nitrendipine Binding Assay IC50; 3H-nitrendipine displacement, rabbit heart membranes; Tables 6-7.

Regarding `CC1=C(C(=O)OCCOC(=O)c2ccc(N(C)C)cc2)C(c2c(F)cccc2Cl)C2=C(CS(=O)(=O)CCS2(=O)=O)N1` (stereo not shown), the 50% inhibitory concentration (IC50) was determined as 118 nM.

Regarding `COC(=O)c1ccc(COC(=O)C2=C(C)NC3=C(C2c2c(F)cccc2Cl)S(=O)(=O)CCS(=O)(=O)C3)cc1` (stereo not shown), the IC50 worked out at 48 nM. Turning to `CC1=C(C(=O)OCCOC(=O)Cc2ccc(N(C)C)cc2)C(c2c(F)cccc2Cl)C2=C(CS(=O)(=O)CCS2(=O)=O)N1` (stereo not shown), the IC50 was 80 nM. Take `CC1=C(C(=O)OCCOC(=O)c2ccc(C#N)cc2)C(c2c(F)cccc2Cl)C2=C(CS(=O)(=O)CCCS2(=O)=O)N1` (stereo not shown): the IC50 was found to be 49 nM.
